Results on three substances are retold here after patent publication US8546419B2, “Dual phase drug release system” (priority 2003, dated 2013).

How the values of series [1] were obtained: The resultant suspension was diluted to 150 ml and extracted with methylene chloride (3×150 ml). Methylene chloride layers were combined, washed with 0.01 N HCl, and dried over magnesium sulfate. Solvent was removed in vacuum.
The nature of series [2]: Hydrolytic stability and CPT release in aqueous media / phosphate buffered saline (RP HPLC). The conditions noted are these: PBS at pH 7.47/37° C.; first phase release. The class given is physicochemical. The protocol: The second stage hydrolysis of CPT-SI was investigated analogously.
Using procedures analogous to the described above, CPT release from these conjugates was investigated in phosphate buffered saline as described above. The conjugates were also tested for cytotoxicity in HT29 cell culture.

For series [3] the following is noted: buffer, pH 7.4. The protocol: PHF-SAG-Taxol conjugate synthesis was carried out on a 2-gram scale, at ambient temperature, pH 5.5-6.0. […] The PHF-SAG-Taxol was purified of low molecular weight impurities by gel filtration on G25 Sefadex column equilibrated with DI water, and recovered by lyophilyzation. […] Stability of PHF-Taxol conjugates in aqueous media was monitored by HPLC.

“(2-Nonen-1-yl)-succinic Acid-Linked PHF-CPT [PHF-NSA-CPT]”: the “solubility (in words)” value in series [1] was “soluble in water and polar organic solvents”. The CPT half-release time in series [2] stood at 16.0 h. Substance “Methylsuccinic Acid-Linked PHF-CPT [PHF-MSA-CPT]” displayed a CPT half-release time in series [2] of 1.4 h.

In the case of Taxol-2′(O)-(succinimidoglycine), the “half-life of ester hydrolysis to Taxol” value in series [3] is reported as “approximately 3 hours”.
